Compound activity as filed in PubChem.
Only some compounds are listed: those with a hit (about 1.5% of all), similar ones and a draw of the others.
FN deposition inh – inhibitors of fibronectin matrix deposition, primary screen, AH1F cells, Alexa488-fibronectin fluorescence, plate reader; inhibition, % at 12.6 µM; hit rate 0.086% among 350,000; AH1F fibroblasts, overnight;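 active means mean inhibition across replicates of 30% or more, regardless of how many single replicates reach that level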;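 further: positive control wells lacked labelled fibronectin entirely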
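Assay system: AH1F fibroblasts / Quantity: 10000 cells per well / Medium: DMEM plus 2% serum, read in PBS / Reagent: labelled fibronectin 24 nM / Dosing: single dose, pinned / Times: 1 h cell attachment, overnight exposure to compound and label / Signal: fluorescence, ex 485 nm, em 525 nm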
Yeast UUG start-1 – alters start codon recognition fidelity in yeast; S. cerevisiae UUG-firefly luciferase reporter, luminescence/redox ratio; activity score, % at 18.7 µM; actives 0.13% (n = 350,000); AID 602363;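 active = replicate mean at a twofold rise or more, about +100% in these data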;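 also: firefly luciferase made from a UUG start codon reports start codon fidelity; reporter light over untreated wells divided by growth signal over untreated wells; some hits fall short of that in this replicate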
PGC1a acetyl inh – inhibitors of PGC1a acetylation signal, primary screen, cell-based, U2OS, AlphaScreen, inhibitor mode; AlphaScreen anti-acetyl-lysine; with virally co-expressed GCN5 acetyltransferase; inhibition, % at 15.6 µM; hit rate 0.17% among 350,000;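 active means every replicate shows inhibition of at least 40%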;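 further: 0% = neutral control wells and 100% = positive control wells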
HIV Env fusion – inhibitors of HIV-1 Env-driven cell-cell fusion, primary screen, HeLa-JRFL effector, CEM21 target cells, luciferase | inhibition, % at 12.3 µM | hit rate 1.1% among 360,000;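 active means mean replicate inhibition score of at least 50 and every replicate individually at or above 50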;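 further: 0% = plate neutral controls and 100% = maraviroc near 300 nM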
Cneo AK release – Cryptococcus neoformans cell lysis inducers, primary screen, AK release luminescence, single concentration; C. neoformans lysis, adenylate kinase release luminescence, 4 h; normalised: neutral wells 0, clomiphene wells 100; lysis activity, % at 15 µM; hit rate 0.2% among 360,000;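 active means mean lysis activity across replicates of at least 80%, whatever share of replicates individually reach that level; inactive means mean lysis activity below 80%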
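Assay system: log-phase C. neoformans yeast / Quantity: yeast cell density of 5 × 10^6 cells/mL / Medium: fresh YPD growth medium / Compound: single dose / Timing: static 4 h at 37 °C with compound, 1 h detection / Measured by: adenylate kinase release luminescence / Read-out: lysis from increased AK signal / Benchmarks: Clomiphene as positive lysis control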
miR-122 sensor – miR-122 Renilla sensor signal increase in Huh7, primary screen, miR-122 inhibitor project, cell-based, single point, plate reader. hit rate 0.3% among 340,000. activation (reporter increase), % at 12.5 µM. Huh7 miR-122 Renilla luciferase sensor, 48 h; neutral wells = 0, positive control = 100;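 active means mean replicate activation score at least 90 and every replicate individually at or above 90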;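 further: higher luciferase means less miR-122 activity so hits act as miR-122 inhibitors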
Yeast UUG start-2 – enhancers of UUG start codon usage in yeast, dose response, S. cerevisiae, UUG firefly luciferase, cherry-pick, set 2 | shares compounds with Yeast UUG start-1 | luminescence, 4 h; 100% means double the DMSO signal | activation, % at 38 µM | 540 tested, under 10 active;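 active means signal increase whose fitted curve reaches an absolute level of 40 at a concentration under 10 µM; inactive means activity opposite to the expected increase, or the rest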
The depositor's hits bear a star; i = inactive; nt = not tested or not shown; [ ] = remark or other dose.

item | SMILES | FN deposition inh | Yeast UUG start-1 | PGC1a acetyl inh | HIV Env fusion | Cneo AK release | miR-122 sensor | Yeast UUG start-2
1 | COC(=O)c1c2oc(c1C(=O)OC)C(=O)N[C@H](Cc1ccccc1)Cn1cc(nn1)CNC(=O)[C@H](Cc1ccccc1)NC(=O)N[C@@H](CO)CC2 | nt | 216* | 1 | -11[16.7 µM] | 7 | nt | i
2 | CCOc1ccc2oc(C(=O)OCC(=O)NC(=O)NC)c(C)c2c1 | 6 | -17 | 10 | -12 | -2 | -4 | -4
3 | COc1ccc2oc(C(=O)OCC(=O)NCCc3ccccc3)c(C)c2c1 | -1 | -9 | nt | 1 | -1 | -3 | 0
4 | COc1ccc2oc(C(=O)OCC(=O)N3CCN(C(C)=O)CC3)c(C)c2c1 | -6 | -4 | nt | 3 | -2 | nt | 1
5 | COc1ccc2oc(C(=O)OCC(=O)N3CCCCC3)c(C)c2c1 | -1 | -13 | 0 | -23 | -2 | -7 | nt
6 | COc1ccc(OCc2nnc(SCC(=O)N3CCCC3)o2)cc1 | 11 | -4 | nt | -1 | -3 | nt | nt
7 | CCNC(=O)C[C@@H]1CC[C@H]2[C@H](COc3ccc(NC(=O)Cc4cccs4)cc3C(=O)N2C)O1 | 0 | -22 | -1 | 17[16.7 µM] | -3 | 19[16.7 µM] | nt
8 | O=c1[nH]cc(N2CCCCCC2)c(=O)[nH]1 | -4 | -18 | 1 | -15 | -1 | 6 | nt
9 | COc1ccc(C2=NOC(C)(c3nnc(-c4ccc(F)cc4)o3)C2)cc1 (stereo not given) | -3 | -10 | nt | -11 | 2 | -1 | nt
10 | Cc1ccc(C2/C(=C(\O)c3cnn(-c4ccccc4)c3C)C(=O)C(=O)N2CCN(C)C)o1 (stereo not given) | nt | -17 | 3 | nt | 0 | -4 | nt
11 | CC(C)C(=O)Nc1cccc(N2CCN(CCCN3C(=O)C4CCCCN4C3=O)CC2)c1 (stereo not given) | 3 | 105* | nt | 2 | 3 | -17 | -3
12 | CCCCC/C(=N\NC(=O)Nc1ccccc1)c1ccccc1 | -6 | nt | nt | -1 | nt | nt | nt
13 | COc1ccc(C2CCCN2C(=S)Nc2cccc(C)c2)cc1OC (stereo not given) | 10 | nt | -23 | 6 | nt | nt | nt
14 | COc1ccc(NC(=S)N2CCCC2c2ccc(OC)c(OC)c2)cc1 (stereo not given) | -5 | 339* | -5 | 5 | 0 | -2 | 3
15 | C[C@H]1CN([C@@H](C)CO)C(=O)c2cccc(NC(=O)C3CCOCC3)c2O[C@@H]1CN(C)C(=O)Nc1ccc2c(c1)OCO2 | 12 | nt | -6 | -15[16.7 µM] | nt | 6[16.7 µM] | nt
16 | CN(C)c1ccc(C2N3CC4(C)CN2CC(C)(C3)C4O)cc1 (stereo not given) | 1 | -13 | 8 | -5 | 5 | 3 | nt
17 | C1CN(c2nc3nonc3n3nnnc23)CCO1 | nt | 442* | -1 | 28 | 1 | 0 | 8
18 | c1ccc2c(c1)nc(N1CCOCC1)c1nnnn12 | 0 | -18 | -10 | -212 | -3 | -7 | nt
19 | CC(=O)Nc1cccc(-n2nnc(SCC(N)=O)n2)c1 | 1 | nt | nt | -1 | nt | nt | nt
20 | O=C(Nc1ccc(F)cc1)c1ccccc1Oc1ccc(C(F)(F)F)cc1[N+](=O)[O-] | -4 | nt | nt | -3 | nt | nt | nt
21 | O=[N+]([O-])c1cc(C(F)(F)F)ccc1Oc1cccnc1[N+](=O)[O-] | 5 | 190* | 5 | 32 | -1 | -8 | 17
22 | O=C(Nc1ccccc1)C1CC(=O)N(c2ccc3c4c(cccc24)CC3)C1 (stereo not given) | nt | -25 | 0 | nt | 1 | 5 | nt
23 | CC(C)Cn1cnc2c(=O)oc3ccccc3c21 | nt | -7 | 18 | nt | 1 | -6 | nt
24 | Cc1c(C(=O)CN2CCCC(C)(C)C2)c2ccccc2n1C | 4 | active | 12 | 12 | 3 | -3 | -1
25 | CCCC(=O)Nc1ccccc1NC(=O)c1ccc(OCC)c(OCC)c1 | -9 | nt | nt | -3 | nt | nt | nt
26 | CCCC(=O)Nc1ccccc1NC(=O)c1ccc(OC(C)=O)cc1 | 2 | 444* | -3 | -17 | -3 | -5 | 12

As a short view, some entries already given:
item | SMILES | FN deposition inh | Yeast UUG start-1 | PGC1a acetyl inh | HIV Env fusion | Cneo AK release | miR-122 sensor | Yeast UUG start-2
1 | COC(=O)c1c2oc(c1C(=O)OC)C(=O)N[C@H](Cc1ccccc1)Cn1cc(nn1)CNC(=O)[C@H](Cc1ccccc1)NC(=O)N[C@@H](CO)CC2 | nt | 216* | 1 | -11[16.7 µM] | 7 | nt | i
2 | CCOc1ccc2oc(C(=O)OCC(=O)NC(=O)NC)c(C)c2c1 | 6 | -17 | 10 | -12 | -2 | -4 | -4
3 | COc1ccc2oc(C(=O)OCC(=O)NCCc3ccccc3)c(C)c2c1 | -1 | -9 | nt | 1 | -1 | -3 | 0
